Source: PubChem BioAssay AID588391 (Broad Institute, 2011)
The list shows a part of the results, in another mix than the full data. Some salts and complexes are drawn in separate pieces, as the source files them; their charges need not balance. Calls of active or inactive are those of the source.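 The calls were made as follows: active = mean inhibition across replicates of 30% or more, whatever share of single replicates reach that level; inconclusive = mean inhibition below 30% while every single replicate reaches 30%; inactive = the rest.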

By UniProt entry, the sequences of proteins in these tests, tags left out.
UniProt P07237, whole entry: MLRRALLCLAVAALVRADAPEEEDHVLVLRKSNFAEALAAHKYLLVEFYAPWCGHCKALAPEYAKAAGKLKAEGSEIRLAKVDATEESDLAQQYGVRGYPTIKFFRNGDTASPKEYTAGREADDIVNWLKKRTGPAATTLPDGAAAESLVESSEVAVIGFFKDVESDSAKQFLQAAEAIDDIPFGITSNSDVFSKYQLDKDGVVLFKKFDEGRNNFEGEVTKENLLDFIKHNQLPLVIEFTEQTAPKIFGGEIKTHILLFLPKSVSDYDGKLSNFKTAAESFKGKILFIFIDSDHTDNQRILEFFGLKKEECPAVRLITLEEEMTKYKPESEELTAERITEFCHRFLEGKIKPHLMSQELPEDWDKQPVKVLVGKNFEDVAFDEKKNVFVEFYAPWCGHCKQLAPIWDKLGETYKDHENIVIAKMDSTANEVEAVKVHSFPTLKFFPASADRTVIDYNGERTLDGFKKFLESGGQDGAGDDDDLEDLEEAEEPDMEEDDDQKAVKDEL

Each compound was assayed against Protein disulfide-isomerase (Homo sapiens) (UniProt P07237) (assay: inhibitors of human PDI, primary screen, biochemical, turbidity, single point, plate reader (AID 588391;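 also: absorbance from insulin aggregation driven by PDI reduction with DTT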)). Conditions: PDI insulin aggregation turbidity, A650, 90 min; at 10 µM; active compounds read high.
For `CCOC(=O)c1ccc(NP(C)(=O)Oc2ccc(F)cc2)cc1` (stereo not given), the inhibition was inactive: -2.65%. For `COc1ccc(OP(C)(=O)Nc2ccc(SC(F)(F)F)cc2)cc1` (stereo not given), the inhibition was inactive: 2.96%. `CP(=O)(Nc1ccccc1)Oc1ccc(F)cc1` (stereo not given) was tested, and the inhibition was inactive: -7.02%. With `O=[N+]([O-])c1cc([N+](=O)[O-])c(OC2CCCCC2O)c([N+](=O)[O-])c1` (stereo not given) the inhibition was inactive: 4.45%. For `CCCCCOc1ccc(NP(C)(=O)Oc2ccc(Cl)cc2Cl)cc1` (stereo not given), the inhibition was inactive: 15.3%. With `Cc1c([N+](=O)[O-])cc([N+](=O)[O-])c(Br)c1[N+](=O)[O-]` the inhibition was inactive: -0.076%. For `CCN(CC)CCCOC(=O)C(O)(c1ccccc1)C1CCCCC1` (stereo not given), the inhibition was inactive: -1.83%. In the case of `CP(=O)(Nc1ccccc1F)Oc1ccccc1` (stereo not given), the inhibition is reported as inactive: -3.78%. In the case of `CC(C)c1ccc(OP(C)(=O)Nc2ccc(SC(F)(F)F)cc2)cc1` (stereo not given), the inhibition is reported as inactive: 5.92%. In the case of `O=[N+]([O-])c1cc([N+](=O)[O-])c(Nc2ccc(Cl)cc2)c([N+](=O)[O-])c1`, the inhibition is reported as inactive: -3.13%. For `COc1ccc2c(c1O)-c1c(O)c(OC)cc3c1[C@H](C2)[N+](C)(C)CC3.O=[N+]([O-])c1cc([N+](=O)[O-])c([O-])c([N+](=O)[O-])c1[O-]`, the inhibition was inactive: 0.935%. `O=C(OC1CN2CCC1CC2)c1ccc([N+](=O)[O-])cc1` (stereo not given) was tested, and the inhibition was inactive: -1.84%. With `O=C(OCCN1CCN(CCOCc2ccccc2)CC1)C(O)(c1ccccc1)c1ccccc1` the inhibition was inactive: 12%. `CCOP(C)(=S)SCC(=O)NC(C)(CC)C(=O)O` (stereo not given) was tested, and the inhibition was inactive: 0.244%. `CP(=O)(Nc1ccc(SC(F)(F)F)cc1)Oc1ccc(F)cc1` (stereo not given) was tested, and the inhibition was inactive: 0.372%. With `Cc1ccccc1NP(C)(=O)Nc1ccccc1C` the inhibition was inactive: 6.29%. `CP(=O)(Nc1ccc2c(c1)OCCO2)Oc1ccccc1` (stereo not given) was tested, and the inhibition was inactive: 1.39%. With `CN(C)CCOC(=O)C(O)(c1ccccc1)C1CCCCC1` (stereo not given) the inhibition was inactive: 10.8%. For `COc1ccc(NP(C)(=O)Oc2ccccc2OC)cc1` (stereo not given), the inhibition was inactive: -0.0515%. With `COc1ccc(OP(C)(=O)Nc2cccc(Br)c2)cc1` (stereo not given) the inhibition was inactive: 3.3%. `Cc1c(C(c2ccc3c(c2)OCO3)c2c(C)n(C)n(-c3ccccc3)c2=O)c(=O)n(-c2ccccc2)n1C.O=[N+]([O-])c1cc([N+](=O)[O-])c(O)c([N+](=O)[O-])c1` was tested, and the inhibition was inactive: -8.24%. `O=[N+]([O-])c1ccc(OP2(=O)COCCO2)cc1` (stereo not given) was tested, and the inhibition was inactive: 2.94%. In the case of `Cc1cc(-c2cccc3ccccc23)c(C)cn1.O=[N+]([O-])c1cc([N+](=O)[O-])c(O)c([N+](=O)[O-])c1`, the inhibition is reported as inactive: 4.99%. `O=[N+]([O-])c1cc([N+](=O)[O-])c(NCC2CCS(=O)(=O)C2)c([N+](=O)[O-])c1` (stereo not given) was tested, and the inhibition was inactive: 5.54%. For `CCOC(=O)c1ccc(NP(C)(=O)Oc2ccc(Cl)cc2)cc1` (stereo not given), the inhibition was inactive: 1.17%. In the case of `CP(=O)(OC12CC3CC(CC(C3)C1)C2)OC12CC3CC(CC(C3)C1)C2`, the inhibition is reported as inactive: -1.52%. In the case of `COc1ccccc1OP(C)(=O)Nc1c(C)n(C)n(-c2ccccc2)c1=O` (stereo not given), the inhibition is reported as inactive: 0.927%. With `O=C(OCCCN1CCCC1)C(O)(c1ccccc1)C1CCCCC1` (stereo not given) the inhibition was inactive: 1.72%. With `CP(=O)(Oc1ccccc1)N1CCOC1=O` (stereo not given) the inhibition was inactive: 13.1%. In the case of `CCc1ccc(OP(C)(=O)Nc2cccnc2)cc1` (stereo not given), the inhibition is reported as inactive: 5.9%. In the case of `CCN(CC)CC(O)COC(=O)C(O)(c1ccccc1)C1CCCCC1` (stereo not given), the inhibition is reported as inactive: -4.47%. With `COc1ccc(OP(C)(=O)Nc2ccc(Br)cc2)cc1` (stereo not given) the inhibition was inactive: -3.03%. For `CN(C)C(=O)c1c([N+](=O)[O-])cc([N+](=O)[O-])cc1[N+](=O)[O-]`, the inhibition was inactive: 1.03%. For `CC(C)(C)c1ccc(OP(C)(=O)O)cc1`, the inhibition was inactive: 1.24%. With `COc1ccccc1OP(C)(=O)Nc1ccccc1Br` (stereo not given) the inhibition was inactive: -0.91%. `CP(=O)(Nc1ccc(Cl)cc1)Oc1ccc(F)cc1` (stereo not given) was tested, and the inhibition was inactive: 11.2%. With `COc1ccc(OP(C)(=O)Nc2ccccn2)cc1` (stereo not given) the inhibition was inactive: 1.23%. For `CN(C)CCOC(=O)C(O)(c1ccccc1)C1CCCC1` (stereo not given), the inhibition was inactive: 9.72%. With `COc1ccccc1OP(C)(=O)Nc1ccc(Br)cc1` (stereo not given) the inhibition was inactive: -1.95%. `CP(=O)(Nc1ccccn1)Oc1ccccc1` (stereo not given) was tested, and the inhibition was inactive: 0.612%. For `COc1ccccc1OP(C)(=O)Nc1ccc(C)cc1C` (stereo not given), the inhibition was inactive: 4.26%. `CCc1ccc(OP(C)(=O)O)cc1` was tested, and the inhibition was inactive: -13.6%. `O=[N+]([O-])c1cc([N+](=O)[O-])c(Nc2ccccn2)c([N+](=O)[O-])c1` was tested, and the inhibition was inactive: -1.64%. `Cc1c(NP(C)(=O)Oc2ccc(C(C)C)cc2)c(=O)n(-c2ccccc2)n1C` (stereo not given) was tested, and the inhibition was inactive: -0.567%. With `COc1ccccc1OP(C)(=O)Nc1ccc(C)c(C)c1` (stereo not given) the inhibition was inactive: 5.94%. With `COc1ccc(OP(C)(=O)Nc2ccccc2Br)cc1` (stereo not given) the inhibition was inactive: 1.06%. With `O=C1C(O)=C([N+](=O)[O-])C(=O)C(O)=C1[N+](=O)[O-]` the inhibition was inactive: -1.49%. `Cc1cc(C)cc(OP(C)(=O)Nc2cccc(C(F)(F)F)c2)c1` (stereo not given) was tested, and the inhibition was inactive: -0.655%. `CP(=O)(OCCOc1ccccc1)OCCOc1ccccc1` was tested, and the inhibition was inactive: -0.319%. With `CP(=O)(Nc1ccc(Cl)cc1Cl)Oc1ccccc1` (stereo not given) the inhibition was inactive: 0.66%. `CCCCCCCCCCCCCCCC1C[N+](C)(C)CCOP(C)(=O)O1` (stereo not given) was tested, and the inhibition was inactive: 9.41%. For `O=[N+]([O-])c1ccc2c(c1)C=Nc1ccccc1O2`, the inhibition was inactive: 16.7%. With `CC(C)(C)c1ccc(OP(C)(=O)Nc2ccc(SC(F)(F)F)cc2)cc1` (stereo not given) the inhibition was inactive: -4.18%. In the case of `Cc1cccc(C)c1OP(C)(N)=O` (stereo not given), the inhibition is reported as inactive: 5.49%. For `O=[N+]([O-])c1cc([N+](=O)[O-])c(Nc2cccnc2)c([N+](=O)[O-])c1`, the inhibition was inactive: 0.514%. `Cc1cc(C)cc(OP(C)(N)=O)c1` (stereo not given) was tested, and the inhibition was inactive: 7.59%. `COc1ccccc1OP(C)(=O)Nc1cc(Cl)ccc1C` (stereo not given) was tested, and the inhibition was inactive: 9.84%. With `COc1ccc(OP(C)(=O)Nc2cccc(F)c2)cc1` (stereo not given) the inhibition was inactive: 0.664%. For `COc1ccccc1OP(C)(=O)Nc1ccc(C)cc1` (stereo not given), the inhibition was inactive: 10.2%. With `Cc1ccc(NP(C)(=O)Oc2ccccc2)c(C)c1` (stereo not given) the inhibition was inactive: 6.7%.
